Results taken from patent US8101180B2, “Anti-IGF-IR and/or anti-insulin/IGF-I hybrid receptors antibodies and uses thereof” (Pierre Fabre Medicament, priority 2002, dated 2012).

Key:
A549 cells = assay: ADCC with human NK cells on A549 cells (51Cr); assay type: cell-based; conditions: 4 hours, 10 μg antibody per 5·10^5 cells
Procedure: (§1) It is, however, probable that during its administration in man, the antibody 7H2HM, of isotype IgG1, is capable of inducing cell lysis by a mechanism of ADCC type (Antibody Dependent Cellular Cytotoxicity). In order to verify this point, NK (Natural Killer) cells coming from the peripheral blood of human donors are placed in the presence of A549 or MCF-7 cells previously incubated for 4 hours with 10 μg of 7H2HM antibody per 5·10^5 cells and labeled with ^51Cr ([…]). In this experiment, herceptin (written h4D5 on FIGS. 32A and 32B) is used as an experiment positive control.

MCF-7 cells = assay: ADCC with human NK cells on MCF-7 cells (51Cr); assay type: cell-based; conditions: 4 hours, 10 μg antibody per 5·10^5 cells
Procedure: as §1

## herceptin: anti-HER2/neu antibody used as positive control for ADCC [reference compound]
A549 cells
  ADCC on A549 cells: significant ADCC
MCF-7 cells
  ADCC on MCF-7 cells: significant ADCC
